According to ChEMBL document CHEMBL1143376, “Synthesis and biological evaluation of extraordinarily potent C-10 carba artemisinin dimers against P. falciparum malaria parasites and HL-60 cancer cells” (Bioorg Med Chem, 2009):

tested on: HL-60; test: Anticancer activity against human HL60 cells by MTT assay; format: functional, cell-based
Procedure, shortened: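 HL-60 cells grown in RPMI-1640 with 10% v/v FBS and 1% v/v L-glutamine, 37 °C, 5% CO2, kept below 1 × 10⁶ cells/mL, passages 5–15. Seeded at 2.5 × 10⁴/well in triplicate and exposed for 72 h to […]. DMSO final below 0.5% v/v. Read by MTT (4 h) then SDS/DMF lysis (4 h), A570/590, as % of vehicle. IC50 taken from inhibition curves; experiments repeated at least three times.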

Compared with `C[C@H]1[C@@H](CCCOP(C)(=O)OCCC[C@H]2O[C@@H]3O[C@@]4(C)CC[C@H]5[C@H](C)CC[C@@H]([C@H]2C)[C@@]35OO4)O[C@@H]2O[C@@]3(C)CC[C@H]4[C@H](C)CC[C@@H]1[C@@]24OO3`, `C[C@H]1[C@@H](CCOP(C)(=O)OCC[C@H]2O[C@@H]3O[C@@]4(C)CC[C@H]5[C@H](C)CC[C@@H]([C@H]2C)[C@@]35OO4)O[C@@H]2O[C@@]3(C)CC[C@H]4[C@H](C)CC[C@@H]1[C@@]24OO3` is 1.6-fold higher in IC50: 100 nM for the first, 160 nM for the second.

Molecule `C[C@H]1[C@@H](CCOP(C)(=O)OCC[C@H]2O[C@@H]3O[C@@]4(C)CC[C@H]5[C@H](C)CC[C@@H]([C@H]2C)[C@@]35O4)O[C@@H]2O[C@@]3(C)CC[C@H]4[C@H](C)CC[C@@H]1[C@@]24O3` has an IC50 of 28100 nM.
